# Test results published in US6838277B1, “Furthering the enzymatic destruction of nerve agents” (dated 2005).
# How the values were obtained:
# B. caryophilli PG2982 = experiment: Growth on phosphonates as the sole source of phosphorus; conditions: data not shown
# OPH = conditions: product of diisopropyl fluorophosphate hydrolysis by OPH; cited from earlier work
# P. testosteroni = experiment: Growth on phosphonates as the sole source of phosphorus; conditions: 0.3 mM, NMM broth, 94 hours, 28° C.
compound,measurement,setting,value
O=C(O)CNCP(=O)(O)O,utilization as the sole phosphorus source,B. caryophilli PG2982,capable of utilizing
diisopropyl phosphate,effect on OPH activity,OPH,inhibitory
inorganic phosphate,growth on phosphorus source as sole phosphorus source,P. testosteroni,robust growth
